# In the library only some 1.3% were active in any assay of this set; here they are far more common.
# ALOX12 inh – ALOX12 (human) lipoxygenase inhibition | P18054 | purified 12hLO, xylenol orange hydroperoxide absorbance | Potency, µM (top dose mostly 108 µM), hits mostly inhibitors | actives 1.1% (n = 580,000)
#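 Hydroperoxide product was detected by ferrous iron/xylenol orange as the 573 to 405 nm absorbance ratio. Arachidonic acid at 40 uM (final) was turned over for 30 min at room temperature by 150 nM human 12hLO, pH 7.0 Hepes buffer, after 15 min compound preincubation.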
# miR-21 reporter – raises the signal of a miR-21 reporter; AID 2288; 340,000 tested, under 10 active; Potency, µM (doses to about 38.3 µM); HeLa miR-21 FLuc reporter, luciferase, 48 h; active = well fitted rising curve with a large enough effect; inconclusive = small, poorly fitted or top-dose-only effect; inactive = no such curve, though single readings can be large or run the other way;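 note: miR-21 action dims this reporter so a rising signal means less miR-21 action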
#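 HeLa cells stably expressing CMV-driven firefly luciferase with a downstream miR-21 binding sequence, endogenously expressing miR-21, were treated with titrations (up to about 40uM final) for 48 hours at 37 degree Celsius. Luciferase luminescence was read after lysis.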
# PINK1 expr mod – modulators of PINK1 expression; PINK1 immunofluorescence, high-content cytometry, 24 h; Potency, µM (series often up to 76.6 µM), actives largely listed as activators; actives 0.2% (n = 410,000); AID 624263; active = well fitted activation curve with a large enough effect; inconclusive = small, poorly fitted or top-dose-only effect; cell line not stated here; note: nearly all actives have a fitted effect of over 65% in size
#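 Compound titrations (5 concentrations, 24 h) on a stable cell line; DMSO and CCCP controls. Endpoint: fixed-cell PINK1 immunofluorescence with mitochondrial, cell and nuclear markers, scanned by microplate cytometer.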
# ERG-DNA inh – ERG Ets/DNA interaction inhibition | P11308 | fluorescence polarization, His-ERG Ets domain / labelled DNA | Potency, µM (top dose mostly 76.9 µM), usual class: inhibitors | actives 0.028% (n = 370,000); active = well fitted inhibition curve with a large enough effect in the polarisation, with a control signal flat; inconclusive = small, poorly fitted or top-dose-only effect, or effect the other way, or a change in a side signal; inactive = no such curve, though single readings can be large or run the other way; the % refers to the polarisation;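 note: polarization taken with two DNA probes labelled with fluorescein and Texas red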
#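 His-tagged ERG Ets domain (1 uM in the protein solution; 300mM KCl, 50mM Tris-HCl, 1mM EDTA, 1mM DTT, pH 7.5) received compound, then a probe mix of 5 nM fluorescein-DNA and 100nM Texas-615-DNA. Fluorescence polarization was read for both dyes.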
# Giardia killer – Giardia lamblia killing; Giardia lamblia trophozoite viability; activity change, % at 7.66 µM, hits read low; actives 0.15% (n = 340,000); in the data active = activity change below about -80%; inconclusive = between about -30% and that limit;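 note: parasites exposed to compound for two days anaerobically before the ATP read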
#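 Trophozoite viability was measured as ATP-dependent luminescence, read 15-30 min after reagent addition. Before that, parasites at 100 cells/well were exposed to compounds for 48 h, anaerobically, at 37 deg C.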
# PTHR1 ag – activates the human parathyroid hormone receptor PTHR1. Q03431. HEK293 GP2 PTHR1 cells, GloSensor cAMP luminescence, 1 h. Potency, µM (top dose mostly 115 µM), most hits filed as activators. actives 0.075% (n = 410,000); note: nearly all actives have a fitted effect of over 55% in size
#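 HEK-293-derived GP2 cells expressing PTHR1 and a GloSensor cAMP reporter, 3,000/well, plated overnight, given luciferin plus IBMX (each 0.5 mM as added) for 1 h at 37 °C, then compound for 1 h at 37 °C. Luminescence was read after 15 min at room temperature.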
# A number is an active result; . = inactive; ? = inconclusive; / = no result; [ ] = remark or other dose. Unless noted, calls come from the whole dose curve; as a rule, active = well fitted curve in the direction sought with a large enough effect; inconclusive = small, poorly fitted or top-dose-only effect, or another doubt; inactive = no such curve, though single readings can be large; an effect the other way counts as inactive or inconclusive.
SMILES,ALOX12 inh,miR-21 reporter,PINK1 expr mod,ERG-DNA inh,Giardia killer,PTHR1 ag
O=c1[nH]c(/C=C\c2cccs2)nc(O)c1[N+](=O)[O-],22µM,.,.,.,.,.
O=c1[nH]c(/C=C\c2ccc(O)cc2)nc(O)c1[N+](=O)[O-],?,.,.,.,.,.
O=C(N/N=C/C=C\c1ccco1)c1ccccn1,.,.,.,.,.,.
O=C(N/N=C\C=C\c1ccco1)c1cc(-c2ccc3ccccc3c2)n[nH]1,40µM,.,?,.,.,.
Cc1ccc(OCC(=O)N/N=C/C=C/c2ccco2)cc1C,40µM,.,.,.,.,.
Cc1ccc(OCC(=O)N/N=C/c2ccncc2)cc1C,?,.,.,.,.,.
O=C(CNc1cccc2ccccc12)N/N=C/C=C/c1ccco1,32µM,.,.,.,.,.
CC(C)(C)CN1CCC2(CC1)COc1ccccc1[S+](=O)([O-])N2,.[6.33 µM],/,/,/,/,/
COc1cccc(CNC(=O)CSCc2cnn(-c3ccccc3)c2-n2cccc2)c1OC,.,.,.,.,.,.
Cc1cccc(Cn2cccc2CNS(=O)(=O)c2ccccc2F)c1,.,.,.,.,/,.
COc1ccc(C)cc1-n1[nH]nnc1=S,?,.,.,.,.,.
Cc1cc(C)c(-n2[nH]nnc2=S)c(C)c1,11µM,.,.,.,?,.
COc1ccc(-n2nc(C(=O)NCC(=O)NCCC3=CCCCC3)c3ccccc3c2=O)cc1OC,.,.,.,.,.,.
Clc1ccccc1-c1nccc(NCCN2CCOCC2)n1,45µM,/,.,/,/,/
N/C(=C/C(=O)c1ccccc1O)C(F)(F)F,/,.,.,.,.,.
COc1ccc(C(=O)/C=C(\N)C(F)(F)F)c(O)c1,40µM,.,?,.,.,.
CCCCSc1c(C)c2cc3c(cc2[nH]c1=O)OCO3,.,.,5.6µM,.,.,.
CCOC(=O)N1CCN(C(=O)CCCCCn2c(=S)[nH]c3cc4c(cc3c2=O)OCO4)CC1,.,.,.,.,.,.
Cc1cc(C2CCCN2C(=O)c2ccc(-c3ccccc3Cl)o2)no1 (stereo not given),.,/,/,/,/,/
Cc1cccc(C)c1NC(=S)NCCc1ccc(O)c(O)c1,35µM,.,.,.,.,.
Cc1cccc(N2CC(C(=O)Nc3nnc(SCCN4CCOCC4)s3)CC2=O)c1 (stereo not given),.,.,.,.,.,.
Cc1cccc(N2CC(C(=O)Nc3nnc(SCCC4OCCO4)s3)CC2=O)c1 (stereo not given),8.9µM,.,.,.,.,.
CC(C)(C)NC(=S)NC(=O)C12CC3CCC(CC(C3)C1)C2,22µM,.,.,/,.,.
COc1cc(OC)cc(C(=O)N2CCCC(c3noc(COc4ccccc4F)n3)C2)c1 (stereo not given),.,/,/,/,/,/
Cc1cnc([N+](=O)[O-])n1CCOC(=O)c1cccc(F)c1,.,.,.,.,-81,.
SMILES,ALOX12 inh,miR-21 reporter,PINK1 expr mod,ERG-DNA inh,Giardia killer,PTHR1 ag
Cc1ccc(NC(=O)CN(C)S(=O)(=O)c2ccc(Br)s2)cc1F,.,.,.,.,.,.
COc1ccc(Cc2c(-c3ccc(Cl)cc3)nc3c(C)cc(Br)cn23)c(C)c1,?,/,.,/,/,.
COc1ccc(Cc2c(-c3ccccc3)nc3ccc(Cl)cn23)c(C)c1,?,/,.,/,/,.
COc1ccc(Cc2c(-c3cccc(Cl)c3)nc3c(C)cc(Br)cn23)c(C)c1,7.9µM,/,?,/,/,.
COc1ccc(Cc2c(-c3cccc(Cl)c3)nc3cc(C)c(Br)c(C)n23)c(C)c1,?,/,.,/,/,.
COc1ccc(Cc2c(-c3ccc(F)cc3)nc3c(C)cc(Br)cn23)c(C)c1,35µM,/,.,/,/,.
COc1ccc(Cc2c(-c3cccc(Cl)c3)nc3ccc(C)cn23)c(C)c1,10µM,/,.,/,/,.
COc1ccc(Cc2c(-c3ccc(F)cc3)nc3ccc(Cl)cn23)c(C)c1,28µM,/,.,/,/,.
CCN(Cc1ccccc1)c1ccc(/C=C/c2ccnc3ccccc23)cc1,/,/,.,/,/,/
Cc1ccc(N2CC(C(=O)Nc3ccc4c(c3)OCCO4)CC2=O)cc1 (stereo not given),.,.,/,/,.,.
O=C(CNCc1ccc(Cl)cc1)N1CCc2ccccc2C1,32µM,.,.,.,.,.
COc1ccc(/C(O)=C2\C(=O)C(=O)N(c3cc(C)on3)C2c2cccc(OC)c2OC)cc1C (stereo not given),.,.,.,.,.,.
COc1cccc(C2c3c(oc4ccc(Cl)cc4c3=O)C(=O)N2c2cc(C)on2)c1OC (stereo not given),?,.,13µM,.,.,.
COc1ccc(C2c3sc(=O)[nH]c3SC3C4CCC(C4)C23)cc1OC (stereo not given),.,.,.,.,.,.
COc1cc(C2c3sc(=O)[nH]c3SC3C(=O)N(c4ccc(Br)cc4)C(=O)C32)ccc1O (stereo not given),40µM,.,.,.,.,.
Cc1nc2[nH]c(=S)[nH]c2cc1Br,13µM,.,.,.,.,.
CCC(=O)Nc1sc(Cc2ccccc2)c(C)c1C(N)=O,.,.,.,.,.,.
Cc1c(Cc2ccccc2)sc(NC(=O)Cc2ccccc2)c1C(N)=O,16µM,/,.,.,.,.
CC(NC(=O)COc1ccc([N+](=O)[O-])cc1)c1ccccc1 (stereo not given),.,.,.,.,.,.
Cc1cc(C)c(O)c(CN(C)Cc2cc(Cl)cc(Cl)c2O)c1,40µM,/,?,.,.,.
CC(C)(C)S(=O)N1Cc2cc(C(=O)N3CCOCC3)nc(-c3cccc(Br)c3)c2[C@H]1CCO (stereo not given in full),5µM,/,.,/,/,.
COc1cccc(-c2cccc(-c3nc(C(=O)NCc4ccc5c(c4)OCO5)cc4c3[C@H](CCO)N(S(=O)C(C)(C)C)C4)c2)c1 (stereo not given in full),28µM,/,.,/,/,.
CN1CCN(C(=O)c2cc3c(c(-c4cccc(Br)c4)n2)[C@H](CCO)N(S(=O)C(C)(C)C)C3)CC1 (stereo not given in full),.,/,.,/,/,.
Cc1ccc(NC(=O)C2CCCN(c3cnn(Cc4ccccc4)c(=O)c3)C2)c(C)c1 (stereo not given),.,/,/,/,/,/
CCc1cccc(NC(=O)C2CCCN(c3cnn(Cc4ccccc4)c(=O)c3)C2)c1 (stereo not given),40µM,/,/,/,/,/
CN1CCN(C2CN(Cc3cn(Cc4ccc(Cl)cc4)nn3)S(=O)(=O)C2)CC1 (stereo not given),28µM,/,.,/,/,.
